Patent US10065941B2, “Aminotriazine derivative and pharmaceutical composition comprising the same” (Shionogi & Co., Ltd., priority 2013, dated 2018)

By UniProt entry, the sequences of proteins in these tests, tags left out. Where a name states a change or a piece, a line headed by the entry shows the natural chain unless it says otherwise.
UniProt P56373: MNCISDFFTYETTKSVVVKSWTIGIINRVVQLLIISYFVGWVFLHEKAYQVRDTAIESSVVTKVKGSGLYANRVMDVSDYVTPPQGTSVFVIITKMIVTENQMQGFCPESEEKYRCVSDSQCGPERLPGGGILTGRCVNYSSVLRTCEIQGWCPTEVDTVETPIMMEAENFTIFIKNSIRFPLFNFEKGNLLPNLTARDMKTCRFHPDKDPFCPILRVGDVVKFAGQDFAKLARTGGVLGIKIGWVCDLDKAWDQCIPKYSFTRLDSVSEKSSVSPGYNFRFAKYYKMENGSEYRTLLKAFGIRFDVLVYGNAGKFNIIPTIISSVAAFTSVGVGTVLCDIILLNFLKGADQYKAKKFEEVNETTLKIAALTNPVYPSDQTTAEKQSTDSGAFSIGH

Each molecule was assayed against human P2X3 receptor (Homo sapiens (Human), UniProt P56373) (assay: Evaluation of human P2X3 receptor inhibitory activity (Test Example 1)). Conditions: C6BU-1 cell transfected with human P2X3 receptor gene, FLIPR 384.
Type: cell-based
Method: Stably expressing cell line (C6BU-1 cell transfected with human P2X3 receptor gene (GenBank accession number Y07683) was used. The cells were seeded in a 384-well PDL-coated microtiter plate at a concentration of 3000 cells/well and cultured in the medium (8.3% fetal bovine serum, 8.3% horse serum, and 1% antibiotic and antifungal in DMEM) for one day at 37° C. under 5% carbon dioxide atmosphere. The medium was replaced with 4 μM Fluo-3-AM solution (20 mM HEPES, 137 mM NaCl, 2.7 mM KCl, 0.9 mM MgCl2, 5.0 mM CaCl2, 5.6 mM D-glucose, 2.5 mM probenecid, 0.5% BSA, and 0.04% Pluronic F-127, pH 7.5) and incubated at 37° C. under 5% dioxide carbon atmosphere for one hour. The plate was washed with washing buffer (20 mM HEPES, 137 mM NaCl, 2.7 mM KCl, 0.9 mM MgCl2, 5.0 mM CaCl2, 5.6 mM D-glucose, 2.5 mM probenecid, pH7.5), and each well was added with 20 μL of the washing buffer. The plate was placed in High-Throughput Screening System FLIPR 384 (Molecular Device Co.). Measurement of fluorescence intensity by FLIPR 384 was started, and 20 μL of DMSO solutions containing different concentrations of the test compound as prepared by dilution with dilution buffer (20 mM HEPES, 137 mM NaCl, 2.7 mM KCl, 0.9 mM MgCl2, 5.0 mM CaCl2, 5.6 mM D-glucose, 2.5 mM probenecid, 0.1% Pluronic F-127, pH7.5) were dispensed to each well through the built-in automatic dispenser. Five minutes after, 150 nM ATP solution (25 μL) prepared by dilution with the dilution buffer was dispensed through the built-in automatic dispenser, and the measurement of fluorescence intensity was continued for 4 min. For each well, the specific maximum fluorescence intensity was calculated as the ratio of the maximum fluorescence intensity after addition of the ATP solution to the fluorescence intensity at the starting of the measurement. […] The specific maximum fluorescence intensity and IC50 were calculated using Spotfire (Science & Technology Systems, Inc.)
`[2H]C([2H])([2H])c1ccc(Cn2c(=O)n(C[C@H](C)C(=O)OC)c(=O)[nH]/c2=N\c2ccc(Oc3ccc(C)nc3)cc2)cc1` [Compound R-209] was tested, and the IC50 was 5 nM. Work on `[2H]C([2H])([2H])c1ccc(Cn2c(=O)n(C[C@H](C)C(=O)O)c(=O)[nH]/c2=N\c2ccc(Oc3ccc(C)nc3)cc2)cc1` [Compound R-210] yielded an IC50 of 6 nM. In the case of `COC(=O)[C@@H](C)Cn1c(=O)[nH]/c(=N\c2ccc(Oc3ccc(F)cn3)cc2)n(Cc2ccc(C)cc2)c1=O` [Compound I-036], the IC50 is reported as 5 nM.
